This passage reports inhibition results from PubChem BioAssay AID2766 (Sanford-Burnham Center for Chemical Genomics, 2010).

Amino acid sequences for entries named in this document (tags omitted). A change or cut given only in a name is not applied to a line headed by its entry.
UniProt P35414: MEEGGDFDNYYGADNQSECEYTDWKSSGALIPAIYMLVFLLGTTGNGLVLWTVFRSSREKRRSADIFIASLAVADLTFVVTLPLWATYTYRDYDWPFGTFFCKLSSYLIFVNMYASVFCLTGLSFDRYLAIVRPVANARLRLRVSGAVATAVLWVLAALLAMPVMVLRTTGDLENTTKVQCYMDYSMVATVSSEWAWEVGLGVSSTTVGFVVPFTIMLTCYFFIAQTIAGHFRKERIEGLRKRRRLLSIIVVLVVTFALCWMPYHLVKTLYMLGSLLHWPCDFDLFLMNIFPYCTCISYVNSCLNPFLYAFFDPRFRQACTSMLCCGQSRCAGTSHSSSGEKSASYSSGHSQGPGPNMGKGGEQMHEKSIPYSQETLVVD

For this assay, the target named is Apelin receptor (Homo sapiens) (UniProt P35414). In words: apelin receptor inhibitors, beta-arrestin readout – cell-based, luminescence, single concentration, uHTS hits, confirmation (AID 2766). As to conditions: APJ beta-arrestin recruitment, antagonist mode, at 20 µM, hits give high values.

SMILES strings stand for the structures. Only a part is listed here, and it is no random draw. The source made the active and inactive calls. No stated cut-off is given here; in the data, active means inhibition above about 50%; inactive means the rest.

What is called inhibition is how much of the control response was suppressed. Regarding `Cc1ccnc(SCc2cc(=O)c(OC(=O)c3ccc(Cl)c([N+](=O)[O-])c3)co2)n1`, the inhibition is active: 71.6%.
